# Measurements from patent US11845808B2, “Peptide inhibitors of interleukin-23 receptor and their use to treat inflammatory diseases” (Janssen Biotech, Inc., priority 2020, dated 2023).
# What was measured:
# [1] = molecular target: T1, IL-23R (Homo sapiens, UniProt Q5VWK5); experiment: DB cells IL23R pSTAT3 cell assay (pStat3 HTRF); type: cell-based; conditions: IL-23R-expressing DB cells, IL-23 0.5 nM, 30 minutes
# T1 construct: examines the levels of pSTAT3 in IL-23R-expressing DB cells when stimulated with IL-23; host or cells: DB cells
# T1 sequence (Q5VWK5 24-629): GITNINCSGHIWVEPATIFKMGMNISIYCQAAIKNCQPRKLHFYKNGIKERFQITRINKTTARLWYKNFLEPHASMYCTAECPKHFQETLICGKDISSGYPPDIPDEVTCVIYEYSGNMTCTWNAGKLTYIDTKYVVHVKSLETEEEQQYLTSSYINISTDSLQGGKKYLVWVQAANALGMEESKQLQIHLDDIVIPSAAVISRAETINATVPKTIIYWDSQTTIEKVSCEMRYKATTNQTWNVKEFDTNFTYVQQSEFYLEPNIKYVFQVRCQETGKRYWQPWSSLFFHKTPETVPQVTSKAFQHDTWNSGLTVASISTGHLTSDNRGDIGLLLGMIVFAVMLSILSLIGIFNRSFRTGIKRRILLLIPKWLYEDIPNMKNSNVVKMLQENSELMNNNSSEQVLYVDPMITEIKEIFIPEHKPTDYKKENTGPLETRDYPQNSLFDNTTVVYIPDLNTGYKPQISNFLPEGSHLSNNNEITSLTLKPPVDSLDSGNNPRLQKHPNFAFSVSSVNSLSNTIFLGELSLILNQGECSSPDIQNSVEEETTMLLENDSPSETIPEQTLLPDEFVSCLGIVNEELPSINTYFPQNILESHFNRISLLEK
# Source text: Human ELISA indicates the IL23-IL23R competitive binding assay described below, Rat ELISA indicates the rat IL-23R competitive binding ELISA assay described below, and pStat3HTRF indicates the DB cells IL-23R pSTAT3 cell assay described below. The peptides depicted in Table E1A and Table E1B are cyclized via a disulfide bridge formed between two Pen residues in these peptides. The peptides depicted in Table E2 are cyclized via a thioether bond between the indicated amino acid residues. Table E2 provides an illustrative structure depicting thioether cyclization, which is indicated in the table by the term “cyclo,” with the cyclic region bracketed immediately following the term “cyclo.” For certain peptides, the residue Abu is present where indicated, whereas in other embodiments, e.g., those related to the non-cyclized form, the Abu may be referred to as a hSer(Cl) or homoSer residue.
# DB Cells IL23R pSTAT3 Cell Assay
# Where not shown or it is marked as “0”, data was not yet determined.
# [2] = Stability in human fecal homogenate; type: in vitro ADME; conditions: 20% human fecal homogenate, 37° C., 20 μM
# [3] = Stability in cynomolgus monkey fecal homogenate; type: in vitro ADME; conditions: 20% cynomolgus monkey fecal homogenate, 37° C., 20 μM
# [4] = Stability in simulated intestinal fluid (SIF); type: in vitro ADME; conditions: 100 fold dilution of standard SIF concentration, 37° C., 20 μM
# Procedure, shortened: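 Peptides at 20 μM final were incubated at 37 °C in SIF (potassium phosphate with pancreatin, pH 6.8), and reactions were quenched with acetonitrile/1% formic acid at time points from 0 min to 24 h. Percent remaining relative to time 0 was determined by LC-MS/MS against an internal standard, and half-life came from a first-order decay fit.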
# [5] = molecular target: IL-23 stimulated phosphorylated STAT3 in PBMCs (Homo sapiens, UniProt Q5VWK5); experiment: PBMC pSTAT3 assay; type: cell-based; conditions: PBMCs from healthy donors, IL-23 5 ng/mL, 30 minutes
# [6] = molecular target: IL-23 induced IFNγ in natural killer (NK) cells (Homo sapiens, UniProt Q5VWK5); experiment: NK cell based assay (IL-23/IL-18 induced IFNγ); conditions: IL-23 at EC50 to EC75 and IL-18 10 ng/mL, IFNγ in supernatant after 20 to 24 hours
# Source text: Example 3: NK Cell Based Assay
# [7] = Stability in rat plasma; type: in vitro ADME; conditions: SD rat plasma, 37° C., 20 μM
Substance,IC50 [1] [nM],t½: Human Feces anaerobic [2] [h],t½: Monkey Feces anaerobic [3] [h],SIF t½ [4] [h],IC50 [5] [nM],IC50 [6] [nM],t½: Rat Plasma EDTA [7] [h]
Ac-[(D)Arg]-[Abu]-S-T-[W(7-Me)]-Q-[Cys]-Phe[4-(2-aminoethoxy)]-[2-Nal]-[THP]-E-N-H-[Sarc]-NH2 [Peptide 100],1.51,1.6,5.4,>24.0,,,
Ac-[(D)Arg]-[Pen]-N-T-[W(7-Me)]-[Lys(Ac)]-[Pen]-Phe[4-(2-aminoethoxy)]-[2-Nal]-[THP]-E-N-[His(3-Me)]-[Sarc]-NH2 [Peptide 261],0.046,,,,,,
Ac-[Abu]-Q-T-[W(7-Me)]-Q-[Cys]-Phe[4-(2-aminoethoxy)]-[2-Nal]-[THP]-E-N-[3Pal]-[Sarc]-NH2 [Peptide 140],0.791,,,,,,
Ac-[Abu]-Q-T-[W(7-Me)]-Q-[Cys]-Phe[4-(2-aminoethoxy)]-[2-Nal]-[THP]-E-N-[3Pal]-[bA]-NH2 [Peptide 113],0.057,1.1,3.4,10,,,
Ac-[Abu]-Q-T-[W(7-Me)]-Q-[Cys]-Phe[4-(2-aminoethoxy)]-[2-Nal]-[THP]-E-S-[3Pal]-[bA]-NH2 [Peptide 114],0.035,0.8,2.7,10.7,,,
Ac-[Pen]-N-D-[W(7-Me)]-[Lys(Ac)]-[Pen]-Phe[4-(2-aminoethoxy)]-[2-Nal]-[THP]-E-N-[3Pal]-[Sarc]-NH2 [Peptide 290],0.033,,,,,,
Ac-[Pen]-N-T-W-[Lys(Ac)]-[Pen]-Phe[4-(2-aminoethoxy)]-[2-Nal]-[THP]-E-N-[3Pal]-[Sarc]-NH2 [Peptide 158],,,,,0.011,0.0258,
Ac-[Pen]-N-T-[W(5-CN)]-[Lys(Ac)]-[Pen]-Phe[4-(2-aminoethoxy)]-[2-Nal]-[THP]-E-N-[3Pal]-[Sarc]-NH2 [Peptide 154],> 10,,,,,,
Ac-[Pen]-N-T-[W(5-Ca)]-[Lys(Ac)]-[Pen]-Phe[4-(2-aminoethoxy)]-[2-Nal]-[THP]-E-N-[3Pal]-[Sarc]-NH2 [Peptide 160],> 10,,,,,,
Ac-[Pen]-N-T-[W(5-Ph)]-[Lys(Ac)]-[Pen]-Phe[4-(2-aminoethoxy)]-[2-Nal]-[THP]-E-N-[3Pal]-[Sarc]-NH2 [Peptide 150],> 10,>24.0,>24.0,>24.0,,,
Ac-[Pen]-N-T-[W(7-Et)]-[Lys(Ac)]-[Pen]-Phe[4-(2-aminoethoxy)]-[2-Nal]-[THP]-E-N-H-[Sarc]-NH2 [Peptide 32],,21.1,10.2,>24.0,1.4,1.3,>24.0
Ac-[Pen]-N-T-[W(7-Et)]-[Lys(Ac)]-[Pen]-Phe[4-(2-aminoethoxy)]-[2-Nal]-[a-MeLys]-[Lys(Ac)]-N-H-[Sarc]-NH2 [Peptide 33],,25.7,18.1,>24.0,2.2,1.32,>24.0
Ac-[Pen]-N-T-[W(7-Me)]-Q-[Pen]-Phe[4-(2-aminoethoxy)]-[2-Nal]-[THP]-E-N-[3Pal]-[Sarc]-NH2 [Peptide 108],0.022,17.3,12.9,>24.0,,,>24.0
